## Apparent affinities of Ab-14 variants for a coronavirus HR2 peptide

Antigen: PDVDLGDISGINAS, a 14-residue peptide of the SARS-CoV-2 spike HR2 region.

Each scFv is VH, a (GGGGS)3 linker, VL, as in the parent Ab-14, and differs from it in the CDRs of the heavy chain only.
VH: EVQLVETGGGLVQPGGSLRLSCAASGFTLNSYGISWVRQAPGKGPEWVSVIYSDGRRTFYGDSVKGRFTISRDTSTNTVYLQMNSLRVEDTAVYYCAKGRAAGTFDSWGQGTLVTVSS
VL: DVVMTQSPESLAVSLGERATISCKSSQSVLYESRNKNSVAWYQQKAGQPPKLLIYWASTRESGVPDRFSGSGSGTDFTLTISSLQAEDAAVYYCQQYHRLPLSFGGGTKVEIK

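The starting antibody came from a phage panning campaign against this peptide. This is the validation round: designs drawn from the data on random variants, tested in the same kind of assay. Their group label is 14H_Ctrl (Ctrl: baseline library sampled from a position-specific scoring matrix, with some repeated check sequences). The assay is AlphaSeq: two haploid yeast populations carry antibody and antigen on their surface. After mating in shaken culture at 30 °C for 16 h, diploids were selected and their barcode pairs sequenced. The ratio of observed to expected reads was calibrated, replicate by replicate, on BCL2-family standards whose Kd was known from biolayer interferometry. The assay was run in six technical replicates.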

Changes read parent residue, position, new residue, counted from the first residue of the VH shown.
Affinities are written as log10 Kd with Kd in nM; a lower number is a better binder.
A pair that was not seen in that replicate is written "nd"; this usually means weak binding, but a binder can also be missed.

{"changes": "L29I+S63A+G103K+T104R", "log10 Kd (nM) by replicate": "nd 0.68 nd 0.92 nd nd", "empty controls": "0/18"}
{"changes": "F27T+K65R", "log10 Kd (nM) by replicate": "nd nd 1.57 nd nd nd", "empty controls": "0/18"}
{"changes": "F59A+A101N+D106P", "log10 Kd (nM) by replicate": "nd 0.94 1.33 1.29 0.69 1.30", "empty controls": "0/18"}
{"changes": "G103S", "log10 Kd (nM) by replicate": "nd nd nd 2.50 0.94 nd", "empty controls": "1/18 (1.40)"}
{"changes": "G61Q+A102Q+D106P", "log10 Kd (nM) by replicate": "nd 1.52 nd nd 2.13 nd", "empty controls": "1/18 (3.33)"}
{"changes": "T28D+R56M+G61S+A102M", "log10 Kd (nM) by replicate": "nd nd nd nd nd nd", "empty controls": "0/18"}
{"changes": "S31E+R100M", "log10 Kd (nM) by replicate": "0.70 0.59 -0.09 0.12 1.00 0.54", "empty controls": "0/18"}
{"changes": "N30E+R100I+A101G", "log10 Kd (nM) by replicate": "nd nd 1.59 nd nd nd", "empty controls": "0/18"}
{"changes": "S31D+R100S+A101L", "log10 Kd (nM) by replicate": "0.87 0.50 0.42 0.12 0.46 0.81", "empty controls": "2/18 (2.74)"}
{"changes": "F59E+S107W", "log10 Kd (nM) by replicate": "nd nd nd nd nd nd", "empty controls": "0/18"}
{"changes": "N30S+A102K+F105N+D106F+S107V", "log10 Kd (nM) by replicate": "nd nd nd nd nd nd", "empty controls": "0/18"}
{"changes": "S31N", "log10 Kd (nM) by replicate": "nd 1.57 nd nd nd 1.38", "empty controls": "0/18"}
{"changes": "L29P+S53R+K65D+S107Q", "log10 Kd (nM) by replicate": "nd nd nd nd nd nd", "empty controls": "0/18"}
{"changes": "F27A+T28D+S31E+R100E+S107L", "log10 Kd (nM) by replicate": "nd 2.30 1.02 nd nd nd", "empty controls": "0/18"}
{"changes": "R56W+G61A+R100E+A101E+D106K", "log10 Kd (nM) by replicate": "nd 0.83 0.79 nd nd 1.74", "empty controls": "0/18"}
{"changes": "G103V", "log10 Kd (nM) by replicate": "nd nd nd nd nd nd", "empty controls": "0/18"}
{"changes": "L29V+I51D", "log10 Kd (nM) by replicate": "nd nd 1.81 nd nd nd", "empty controls": "0/18"}
{"changes": "N30L+A101Y", "log10 Kd (nM) by replicate": "nd nd nd nd nd nd", "empty controls": "0/18"}

Excerpt, the final 3 entries:

changes	log10 Kd (nM) by replicate	empty controls
G103V	nd nd nd nd nd nd	0/18
L29V+I51D	nd nd 1.81 nd nd nd	0/18
N30L+A101Y	nd nd nd nd nd nd	0/18

The authors averaged sequences with at least three values out of six and counted those with two or fewer as poor binders.
Background: pairings of all heavy chain designs with three empty control strains gave a value in 1% of cases (median 2.08, 5th percentile 0.84). Values in that range, when seen in few replicates, are hard to tell from nonspecific mating. The control count says in how many pairings with the empty strains this scFv gave a signal, with their mean in brackets.
A sequence measured in both rounds can read differently, since the two assays cover different ranges.
The parent sequence was in this pool as ten entries: three were never detected, three once, and four in most replicates, with averages from 0.34 to 2.37.

Data: MIT Lincoln Laboratory AlphaSeq set, Li et al. 2023, doi:10.1038/s41467-023-39022-2, as distributed in FLAb.